The results in this text go back to ChEMBL document CHEMBL3886452, “Buprenorphine analogs” (2015).

The chains behind the UniProt entries cited, without tags or fusion partners.
UniProt P41143, whole entry: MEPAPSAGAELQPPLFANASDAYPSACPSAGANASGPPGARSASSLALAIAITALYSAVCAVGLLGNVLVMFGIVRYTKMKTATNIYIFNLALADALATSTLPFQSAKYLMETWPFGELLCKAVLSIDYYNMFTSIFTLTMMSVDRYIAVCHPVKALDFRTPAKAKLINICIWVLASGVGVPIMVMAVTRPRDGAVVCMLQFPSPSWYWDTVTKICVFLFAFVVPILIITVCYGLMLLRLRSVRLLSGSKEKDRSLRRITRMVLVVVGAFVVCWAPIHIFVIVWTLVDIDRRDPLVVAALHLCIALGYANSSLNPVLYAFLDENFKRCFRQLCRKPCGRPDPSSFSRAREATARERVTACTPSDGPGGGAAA
UniProt P41145, whole entry: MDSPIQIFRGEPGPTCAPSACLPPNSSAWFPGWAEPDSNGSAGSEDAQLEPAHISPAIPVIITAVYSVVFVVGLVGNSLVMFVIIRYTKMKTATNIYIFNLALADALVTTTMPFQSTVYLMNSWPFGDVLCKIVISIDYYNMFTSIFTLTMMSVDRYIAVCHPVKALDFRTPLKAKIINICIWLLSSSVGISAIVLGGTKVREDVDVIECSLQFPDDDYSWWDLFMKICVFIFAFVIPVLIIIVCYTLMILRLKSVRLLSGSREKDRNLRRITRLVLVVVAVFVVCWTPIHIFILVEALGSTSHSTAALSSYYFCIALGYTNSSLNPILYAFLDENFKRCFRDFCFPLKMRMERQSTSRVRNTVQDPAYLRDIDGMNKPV
UniProt P35372, whole entry: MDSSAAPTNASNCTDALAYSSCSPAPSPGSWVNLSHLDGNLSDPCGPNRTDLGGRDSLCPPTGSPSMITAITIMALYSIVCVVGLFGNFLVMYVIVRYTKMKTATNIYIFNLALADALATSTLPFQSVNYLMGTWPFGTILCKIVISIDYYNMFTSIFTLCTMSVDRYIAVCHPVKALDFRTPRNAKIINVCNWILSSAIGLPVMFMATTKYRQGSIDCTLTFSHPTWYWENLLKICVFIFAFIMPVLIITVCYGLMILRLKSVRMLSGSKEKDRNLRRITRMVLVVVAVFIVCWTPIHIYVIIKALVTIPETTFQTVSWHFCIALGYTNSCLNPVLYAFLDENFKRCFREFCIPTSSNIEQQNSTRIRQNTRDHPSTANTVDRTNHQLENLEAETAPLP

One may read the Ki as a dissociation constant, usually derived from enzyme kinetics or from competition with a known ligand. Usually EC50 stands for the concentration needed to bring the measured effect to its halfway point.

Assay [1] has as its target T1, Delta-type opioid receptor (Homo sapiens, UniProt P41143). In words: Radioligand Dose-Displacement Binding Assay: Delta-opioid Receptor Binding Assay Procedures were conducted as follows. Radioligand dose-displacement assays used 0.3 nM [3H]-Naltrindole (Perkin Elmer, Shelton, Conn.; 33.0 Ci/mmole) with 5 ug membrane protein (Perkin Elmer, Shelton, Conn.) in a final volume of 500 ul binding buffer (5 mM MgCl2, 5% DMSO, 50 mM Trizma base, pH 7.4). Non-specific bindi.

For assay [2], the target named is T2, Kappa-type opioid receptor (Homo sapiens, UniProt P41145). Briefly: Functional Assay: Functional [35S]GTPgammaS binding assays were conducted as follows. kippa opioid receptor membrane solution was prepared by sequentially adding final concentrations of 0.026 ug/ul kippa membrane protein (in-house), 10 ug/mL saponin, 3 uM GDP and 0.20 nM [35S]GTPgammaS to binding buffer (100 mM NaCl, 10 mM MgCl2, 20 mM HEPES, pH 7.4) on ice. The prepared membrane solution (190 ul/. (In general: Binding of GTPγS marks nucleotide exchange on a G protein.)

Assay [3] has as its target T3, Mu-type opioid receptor (Homo sapiens, UniProt P35372). Briefly: Radioligand Dose-Displacement Binding Assay: Radioligand dose-displacement binding assays for t-opioid receptors used 0.3 nM [3H]-diprenorphine (Perkin Elmer, Shelton, Conn.), with […] membrane protein/well in a final volume of 500 ul binding buffer (10 mM MgCl2, 1 mM EDTA, 5% DMSO, 50 mM HEPES, pH 7.4). Reactions were carried out in the absence or presence of increasing concentrations of unlabel.

Assay [4] deals with T1, Delta-type opioid receptor. In words: Functional Assay: Functional [35S]GTPgammaS binding assays were conducted as follows. Delta opioid receptor membrane solution was prepared by sequentially adding final concentrations of 0.026 ug/ul delta membrane protein (Perkin Elmer, Shelton, Conn.), 10 ug/mL saponin, 3 uM GDP and 0.20 nM [35S]GTPgammaS to binding buffer (100 mM NaCl, 10 mM MgCl2, 20 mM HEPES, pH 7.4) on ice. The prepared membra.

The target of assay [5] is T2, Kappa-type opioid receptor. In words: Radioligand Dose-Displacement Binding Assay: Radioligand dose displacement assays used 0.4 nM [3H]-U69,593 (GE Healthcare, Piscataway, N.J.; 40 Ci/mmole) with 15 μg membrane protein (recombinant κ opioid receptor expressed in HEK 293 cells; in-house prep) in a final volume of 200 μl binding buffer (5% DMSO, 50 mM Trizma base, pH 7.4). Non-specific binding was determined in the presence of 10 μM un. The note with it: sf9.

Assay [6] addresses T3, Mu-type opioid receptor. In words: Functional Assay: [35S]GTPgammaS functional assays were conducted using freshly thawed u-receptor membranes (Perkin Elmer, Shelton, Conn.). Assay reactions were prepared by sequentially adding the following reagents to binding buffer (100 mM NaCl, 10 mM MgCl2, 20 mM HEPES, pH 7.4) on ice (final concentrations indicated): membrane protein (0.026 mg/mL), saponin (10 mg/mL), GDP (3 mM) and [35S]GTPga.

For `COc1ccc2c3c1O[C@H]1[C@@]4(OC)CC[C@@]5(C[C@@H]4COCc4cccc(NC(N)=O)c4)[C@@H](C2)N(CC2CC2)CC[C@]315`, the Ki in assay [1] came out at 63 nM; on Mu-type opioid receptor [3], 29.3 nM. Besides, the EC50 was found to be 53.5 nM in assay [2] and 22 nM in assay [4].
With `CO[C@]12CC[C@@]3(C[C@@H]1COC(=O)[C@@H](N)Cc1ccccc1)[C@H]1Cc4ccc(O)c5c4[C@@]3(CCN1CC1CC1)[C@H]2O5`, in assay [5], the Ki turned out to be 0.07 nM.
`COc1ccc2c3c1O[C@H]1[C@@]4(OC)CC[C@@]5(C[C@@H]4COC(=O)[C@@H](N)CC(C)C)[C@@H](C2)N(CC2CC2)CC[C@]315` yielded a Ki in assay [1] of 151 nM. Also, the concentration giving a half-maximal response (EC50) in assay [2] worked out at 41.8 nM; at Mu-type opioid receptor [6], 96.5 nM.
For the molecule `COCCOCCOCCOCCOCCOc1ccc2c3c1O[C@H]1[C@@]4(OC)CC[C@@]5(C[C@@H]4COCc4ccccc4)[C@@H](C2)N(CC2CC2)CC[C@]315`, the values for the Ki in assay [1] and in assay [5] were 270 nM and 10.1 nM, respectively. The same molecule displayed a concentration for a half-maximal effect (EC50) at Mu-type opioid receptor [6] of 265 nM.
Take `COCCOCCOCCO[C@]12CC[C@@]3(C[C@@H]1COCc1ccccc1)[C@H]1Cc4ccc(OC)c5c4[C@@]3(CCN1CC1CC1)[C@H]2O5`: on Mu-type opioid receptor [3], the Ki amounted to 7.79 nM. This molecule yielded an EC50 at Mu-type opioid receptor [6] of 137 nM.
On to `CC[C@H](C)[C@H](N)C(=O)OC[C@H]1C[C@@]23CC[C@]1(OC)[C@@H]1Oc4c(OC)ccc5c4[C@@]12CCN(CC1CC1)[C@@H]3C5`, for which the EC50 in assay [2] stood at 66.4 nM. Also, the inhibition constant Ki on Mu-type opioid receptor [3] came out at 5.42 nM.
In assay [1], `CO[C@]12CC[C@@]3(C[C@@H]1COCc1ccccc1)[C@H]1Cc4ccc(OCC(N)=O)c5c4[C@@]3(CCN1CC1CC1)[C@H]2O5` showed a Ki of 166 nM. For the same molecule, the EC50 in assay [4] came to 66.2 nM; at Mu-type opioid receptor [6], 12.3 nM.
Consider `CO[C@]12CC[C@@]3(C[C@@H]1COCc1ccccc1)[C@H]1Cc4ccc(C(N)=O)c5c4[C@@]3(CCN1C)[C@H]2O5`, for which, in assay [1], the affinity, expressed as Ki, was 185 nM. In addition, the EC50 in assay [2] is 13.3 nM; in assay [4] it was 86 nM.
With `COc1ccc2c3c1O[C@H]1[C@@]4(O)CC[C@@]5(C[C@@H]4COCc4ccccc4)[C@@H](C2)N(CC2CC2)CC[C@]315`, it took 50.3 nM to reach a half-maximal effect at Mu-type opioid receptor [6] (EC50).
`COc1ccc2c3c1O[C@H]1[C@@]4(OC)CC[C@@]5(C[C@@H]4CSCc4ccccc4)[C@@H](C2)N(CC2CC2)CC[C@]315` showed a Ki in assay [1] of 81.9 nM. For the same molecule, in assay [4], the EC50 is 176 nM.
Take `CO[C@]12CC[C@@]3(C[C@@H]1COCc1ccccc1)[C@H]1Cc4ccc(NS(C)(=O)=O)c5c4[C@@]3(CCN1C)[C@H]2O5`: the Ki in assay [1] worked out at 743 nM. The figures for the EC50 in assay [2] and in assay [4] were 70.7 nM and 482 nM, respectively.
The molecule `CCCc1cc(COC[C@H]2C[C@@]34CC[C@]2(OC)[C@@H]2Oc5c(OC)ccc6c5[C@@]23CCN(C)[C@@H]4C6)on1` returned a Ki in assay [1] of 3620 nM.
With `COc1ccc2c3c1O[C@H]1[C@@]4(c5ccccc5)CC[C@@]5(C[C@@H]4COCc4ccccc4)[C@@H](C2)N(CC2CC2)CC[C@]315`, the EC50 was found to be 14.6 nM in assay [2] and 23.5 nM on Mu-type opioid receptor [6]. The Ki at Mu-type opioid receptor [3] came to 13.1 nM.
For the molecule `CO[C@]12CC[C@@]3(C[C@@H]1COCc1ccccc1)[C@H]1Cc4ccc(F)c5c4[C@@]3(CCN1CC1CC1)[C@H]2O5`, the EC50 in assay [4] amounted to 66.5 nM. Besides, in assay [5], the Ki was 0.02 nM.
For the molecule `C=Cc1ccc2c3c1O[C@H]1[C@@]4(OC)CC[C@@]5(C[C@@H]4COCc4ccccc4)[C@@H](C2)N(C)CC[C@]315`, the Ki in assay [1] turned out to be 174 nM; in assay [5], 0.23 nM. The EC50 in assay [4] was found to be 189 nM.
On to `CO[C@]12CC[C@@]3(C[C@@H]1COCc1ccccc1C)[C@H]1Cc4ccc(OCCO)c5c4[C@@]3(CCN1C)[C@H]2O5`, for which the Ki in assay [1] worked out at 32.2 nM. Also, the EC50 amounted to 3.94 nM in assay [2] and 22.2 nM in assay [4].
Turning to `CCOC(=O)CC[C@H]1[C@H](COCc2ccccc2)[C@]2(OC)CC[C@]13[C@H]1Cc4ccc(OC)c5c4[C@@]3(CCN1CC1CC1)[C@H]2O5`, the EC50 in assay [2] came to 1830 nM; on Mu-type opioid receptor [6], 3700 nM. Further, on Mu-type opioid receptor [3], the Ki was 15.1 nM.
`COCCOCCOCCOCCOCCO[C@]12CC[C@@]3(C[C@@H]1COCc1ccccc1)[C@H]1Cc4ccc(OC)c5c4[C@@]3(CCN1CC1CC1)[C@H]2O5` gave an EC50 at Mu-type opioid receptor [6] of 137 nM.
Consider `COc1ccc2c3c1O[C@H]1[C@@]4(OC)CC[C@@]5(C[C@@H]4COCc4ccccc4)[C@@H](C2)N(CC2CC2)CC[C@]315`, for which the Ki in assay [1] came to 15 nM; in assay [5] it was 0.09 nM. In addition, the results for the EC50 (in assay [4]; at Mu-type opioid receptor [6]) were 14.7 nM and 10.8 nM, respectively.
Regarding `COc1ccc2c3c1O[C@H]1[C@@]4(OC)CC[C@@]5(C[C@@H]4C(C)(C)OCc4ccccc4)[C@@H](C2)N(CC2CC2)CC[C@]315`, in assay [2], the half-maximal effective concentration (EC50) worked out at 0.28 nM.
On to `COc1ccc2c3c1O[C@H]1[C@@]4(OC)CC[C@@]5(C[C@@H]4COCc4ccccc4)[C@@H](C2)NCC[C@]315`, for which the results for the Ki in assay [1] and in assay [5] were 342 nM and 0.08 nM, respectively. Also, the EC50 in assay [4] is 176 nM.
`COc1ccc2c3c1O[C@H]1[C@@]4(OC)CC[C@@]5(C[C@@H]4C[S+]([O-])Cc4ccccc4)[C@@H](C2)N(CC2CC2)CC[C@]315` (stereo partly drawn) came in with an inhibition constant Ki in assay [1] of 381 nM. Besides, the figures for the EC50 (in assay [4]; at Mu-type opioid receptor [6]) were 231 nM and 50.4 nM, respectively.
As for `CCOC(=O)CC[C@H]1[C@H](COCc2ccccc2)[C@@]23CC[C@]1(OC)[C@@H]1Oc4c(OC)ccc5c4[C@@]12CCN(CC1CC1)[C@@H]3C5`, the inhibitory constant (Ki) on Mu-type opioid receptor [3] was found to be 24.4 nM. For the same molecule, a half-maximal effect at Mu-type opioid receptor [6] (EC50) was put at 186 nM.
In the case of `COc1ccc2c3c1O[C@H]1[C@@]4(OC)CC[C@@]5(C[C@@H]4CS(=O)(=O)Cc4ccccc4)[C@@H](C2)N(CC2CC2)CC[C@]315`, the EC50 in assay [2] came out at 88.8 nM; on Mu-type opioid receptor [6], 160 nM. Moreover, at Mu-type opioid receptor [3], the Ki was 7.29 nM.
For `COCCOCCOCCOc1ccc2c3c1O[C@H]1[C@@]4(OC)CC[C@@]5(C[C@@H]4COCc4ccccc4)[C@@H](C2)N(CC2CC2)CC[C@]315`, the inhibition constant (Ki) in assay [1] was determined as 25.4 nM. The 50% effective concentration (EC50) in assay [4] turned out to be 57.2 nM; at Mu-type opioid receptor [6], 53.1 nM.
In assay [1], `CO[C@]12CC[C@@]3(C[C@@H]1COCc1ccccc1)[C@H]1Cc4ccc(F)c5c4[C@@]3(CCN1C)[C@H]2O5` registered a Ki of 92.5 nM. Besides, the EC50 in assay [2] is 22.7 nM; in assay [4], 67.8 nM.
Turning to `COc1ccc2c3c1O[C@H]1[C@@]4(OC)CC[C@@]5(C[C@@H]4CN(Cc4ccccc4)S(C)(=O)=O)[C@@H](C2)N(CC2CC2)CC[C@]315`, the Ki in assay [1] turned out to be 729 nM; at Mu-type opioid receptor [3] it was 19.4 nM. Besides, the EC50 was 80.5 nM in assay [2], 151 nM in assay [4] and 114 nM at Mu-type opioid receptor [6].
With `CC[C@H](C)[C@H](N)C(=O)OC[C@H]1C[C@@]23CC[C@]1(OC)[C@@H]1Oc4c(O)ccc5c4[C@@]12CCN(CC1CC1)[C@@H]3C5`, at Mu-type opioid receptor [6], the EC50 came out at 5.04 nM.
For `COc1ccc2c3c1O[C@H]1[C@@]4(OC)CC[C@@]5(C[C@@H]4CN(Cc4ccccc4)C(C)=O)[C@@H](C2)N(CC2CC2)CC[C@]315`, the Ki in assay [1] was determined as 387 nM; on Mu-type opioid receptor [3], 11.8 nM. For the same molecule, the EC50 in assay [4] came to 128 nM; at Mu-type opioid receptor [6], 22.1 nM.
As for `CO[C@]12CC[C@@]3(C[C@@H]1COCc1cc4ccccc4s1)[C@H]1Cc4ccc(OCCO)c5c4[C@@]3(CCN1CC1CC1)[C@H]2O5`, the EC50 in assay [2] stood at 7.62 nM; in assay [4], 8110 nM; at Mu-type opioid receptor [6], 3230 nM. Further, the Ki on Mu-type opioid receptor [3] came out at 6.29 nM.
`CO[C@]12CC[C@@]3(C[C@@H]1COc1ccc(-n4ccnc4)cc1)[C@H]1Cc4ccc(O)c5c4[C@@]3(CCN1CC1CC1)[C@H]2O5`: in assay [4], the EC50 amounted to 6060 nM. The Ki in assay [5] worked out at 0.09 nM.
Molecule `CO[C@]12CC[C@@]3(C[C@@H]1COCc1ccccc1)[C@H]1Cc4ccc(OCc5nn[nH]n5)c5c4[C@@]3(CCN1CC1CC1)[C@H]2O5` came in with a Ki in assay [1] of 470 nM. The EC50 in assay [2] worked out at 30.4 nM; in assay [4], 410 nM; at Mu-type opioid receptor [6], 59.9 nM.
Take `COc1ccc2c3c1O[C@H]1[C@@]4(OC)CC[C@@]5(C[C@@H]4COC(=O)[C@@H](N)Cc4ccccc4)[C@@H](C2)N(CC2CC2)CC[C@]315`: the figures for the concentration giving a half-maximal response (EC50) in assay [2] and in assay [4] were 82.3 nM and 57.6 nM, respectively.
As for `CO[C@]12CC[C@@]3(C[C@@H]1COCc1ccccc1)[C@H]1Cc4ccc(O)c5c4[C@@]3(CCN1)[C@H]2O5`, the Ki in assay [5] was 0.08 nM.
